Measurements: PubChem BioAssay AID1159580 (chemical genetic matrix, 2015)
Several values for one entry are separate records, joined by “and”; a condition that tells them apart may be missing. Equal values may be shown once. The entries are a selection whose mix differs from that of the whole data set. Activity calls are given as the source filed them. Rule as the data show it: active = normalized growth mostly below about 0.91 (no sharp cut-off); inconclusive = no clear call, values can overlap the other calls; inactive = mostly above about 0.92.

Assay: chemical genetic growth profiling, strain panel (AID 1159580);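 also: tested at 20 µM; growth read once vehicle control cultures reached saturation at 30 °C; 1 = growth at the plate median or of vehicle wells; lower values mean less growth of the strain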
Conditions: S. cerevisiae deletion strains, growth OD

Measured: normalized growth

CN(CCCl)CCCl
active: locus YAL013W, strain DEP1, active compounds read low 0.0634 | locus YAL021C, strain ccr4, active compounds read low 0.0688 | locus YAL026C, strain drs2, active compounds read low 0.0642 | locus YAL030W, strain snc1, active compounds read low 0.0569 | locus YBL061C, strain skt5, active compounds read low 0.0632 | locus YBR009C, strain hhf1, active compounds read low 0.071 | locus YBR021W, strain FUR4, active compounds read low 0.0913 | locus YBR023C, strain chs3, active compounds read low 0.0648 | locus YBR171W, strain sec66, active compounds read low 0.0801 | locus YBR229C, strain ROT2, active compounds read low 0.0483 | locus YBR231C, strain swc5, active compounds read low 0.0652 | locus YBR279W, strain paf1, active compounds read low 0.0611 | locus YCL011C, strain gbp2, active compounds read low 0.058 | locus YCL016C, strain dcc1, active compounds read low 0.0675 | locus YCL029C, strain bik1, active compounds read low 0.061 | locus YCL061C, strain MRC1, active compounds read low 0.0653 | locus YCL069W, strain vba3, active compounds read low 0.0611 | locus YCR088W, strain abp1, active compounds read low 0.0608 | locus YDL005C, strain med2, active compounds read low 0.0784 | locus YDL035C, strain GPR1, active compounds read low 0.0518 | locus YDL040C, strain nat1, active compounds read low 0.0595 | locus YDL074C, strain BRE1, active compounds read low 0.091 | locus YDL101C, strain DUN1, active compounds read low 0.0606 | locus YDL134C, strain PPH21, active compounds read low 0.0489 | locus YDL185W, strain tfp1, active compounds read low 0.0579 | locus YDL192W, strain arf1, active compounds read low 0.0612 | locus YDR001C, strain nth1, active compounds read low 0.0604 | locus YDR069C, strain doa4, active compounds read low 0.0631 | locus YDR101C, strain arx1, active compounds read low 0.0586 | locus YDR137W, strain rgp1, active compounds read low 0.093 | locus YDR150W, strain NUM1, active compounds read low 0.0602 | locus YDR159W, strain sac3, active compounds read low 0.0912 | locus YDR162C, strain NBP2, active compounds read low 0.0563 | locus YDR195W, strain ref2 = 0.123 | locus YDR297W, strain sur2, active compounds read low 0.0575 | locus YDR318W, strain mcm21, active compounds read low 0.0653 | locus YDR334W, strain swr1, active compounds read low 0.0665 | locus YDR335W, strain msn5, active compounds read low 0.0626 | locus YDR388W, active compounds read low 0.0576 | locus YDR392W, strain spt3, active compounds read low 0.1 | locus YDR502C, strain sam2, active compounds read low 0.0595 | locus YEL003W, strain gim4, active compounds read low 0.0563 | locus YEL037C, strain rad23, active compounds read low 0.0581 | locus YEL061C, strain CIN8 (second series), active compounds read low 0.0619 | locus YEL061C, strain CIN8, active compounds read low 0.056 | locus YER015W, strain faa2, active compounds read low 0.06 | locus YER016W, strain bim1, active compounds read low 0.0627 | locus YER110C, active compounds read low 0.0773 | locus YER111C, strain swi4, active compounds read low 0.0745 | locus YER155C, strain BEM2 (second series), active compounds read low 0.0908 | locus YER155C, strain BEM2, active compounds read low 0.0652 | locus YER167W, strain BCK2, active compounds read low 0.0556 | locus YFR010W, strain ubp6, active compounds read low 0.0707 | locus YGL078C, strain dbp3, active compounds read low 0.0601 | locus YGL086W, strain mad1, active compounds read low 0.0572 | locus YGL167C, strain pmr1, active compounds read low 0.0811 | locus YGL173C, strain kem1, active compounds read low 0.0707 | locus YGL227W, strain vid30, active compounds read low 0.0632 | locus YGL240W, strain doc1, active compounds read low 0.0772 | locus YGL248W, strain PDE1, active compounds read low 0.049 | locus YGL253W, strain hxk2, active compounds read low 0.0541 | locus YGR078C, strain PAC10, active compounds read low 0.0534 | locus YGR135W, strain pre9, active compounds read low 0.0626 | locus YGR229C, strain SMI1, active compounds read low 0.0628 | locus YGR252W, strain gcn5, active compounds read low 0.145 | locus YHR013C, strain ard1, active compounds read low 0.109 | locus YHR027C, strain rpn1, active compounds read low 0.0638 | locus YHR030C, strain SLT2, active compounds read low 0.0494 and 0.122 | locus YHR079C, strain IRE1 (second series), active compounds read low 0.0584 | locus YHR079C, strain IRE1, active compounds read low 0.119 | locus YHR094C, strain hxt1, active compounds read low 0.0591 | locus YHR129C, strain ARP1, active compounds read low 0.0584 | locus YHR142W, strain chs7, active compounds read low 0.0769 | locus YHR200W, strain rpn10, active compounds read low 0.0619 | locus YIL066C, strain RNR3, active compounds read low 0.0529 | locus YIL073C, strain SPO22, active compounds read low 0.118 | locus YIL125W, strain kgd1, active compounds read low 0.0654 | locus YIR030C, strain dcg1, active compounds read low 0.0586 | locus YJL092W, strain hpr5, active compounds read low 0.0602 | locus YJL095W, strain BCK1 (second series), active compounds read low 0.0586 | locus YJL095W, strain BCK1, active compounds read low 0.0596 and 0.109 | locus YJL115W, strain asf1, active compounds read low 0.0741 | locus YJL129C, strain trk1, active compounds read low 0.0888 | locus YJL134W, strain LCB3, active compounds read low 0.0492 | locus YJL154C, strain vps35, active compounds read low 0.0634 | locus YJL164C, strain tpk1, active compounds read low 0.0682 | locus YJL166W, strain qcr8, active compounds read low 0.0604 | locus YJL168C, strain set2, active compounds read low 0.0601 | locus YJL187C, strain SWE1 (second series), active compounds read low 0.0521 | locus YJL187C, strain SWE1, active compounds read low 0.059 | locus YJR043C, strain POL32, active compounds read low 0.0861
